# Assays:
# pKa measurement = type: physicochemical; conditions: Measurement determined at Analyza
pKa (pKa measurement),Observed GSH adducts (GSH Incubation Assay; glutathione (50 mM) at 37° C. in buffer for 4 hours),formation of chemical adducts (GSH Incubation Assay; human liver microsomes in the presence of GSH),SMILES
8.3,,,C[C@H]1C[C@H]2CSC(N)=N[C@@]2(c2cc(NC(=O)c3ccc(OC(F)F)cn3)ccc2F)CO1
,Positive,formation of chemical adducts,N#Cc1ccc(C(=O)Nc2csc([C@]34COCC[C@H]3CSC(N)=N4)c2)nc1

# Reference: patent publication US9605007B2, “2-amino-6-methyl-4,4a,5,6-tetrahydropyrano[3,4-d][1,3]thiazin-8a(8H)-yl-1,3-thiazol-4-yl amides” (Pfizer Inc., priority 2014, dated 2017)
